The test addresses Sigma non-opioid intracellular receptor 1 (Homo sapiens, UniProt Q99720). In words: Binding affinity for Sigma receptor type 1,using [3H](+)-pentazocine as radioligand.

Chains of the proteins cited; added tags and fusions are not shown.
UniProt Q99720, whole entry: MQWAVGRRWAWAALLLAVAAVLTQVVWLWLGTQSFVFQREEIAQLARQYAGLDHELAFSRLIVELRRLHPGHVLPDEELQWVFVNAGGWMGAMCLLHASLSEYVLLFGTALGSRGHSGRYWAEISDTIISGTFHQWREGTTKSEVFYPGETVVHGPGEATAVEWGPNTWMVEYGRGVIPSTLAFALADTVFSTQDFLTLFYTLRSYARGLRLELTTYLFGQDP

For the compound `C(CCCNCCc1ccccc1)=C(c1ccccc1)c1ccccc1`, the Ki turned out to be 1.3 nM.

Consider `CC1CCN(CCCC=C(c2ccccc2)c2ccccc2)CC1`, for which the affinity corresponds to a Ki of 0.13 nM.
